Values of other authors, collected in patent EP0087750B2, “Amino acid preparations containing glutaminic residues” (Kabi Pharmacia GmbH, priority 1982, dated 1994).

Tested on: Hydrolasen in den Geweben des Organismus
Conditions: in vivo, cited from earlier work

## Glycyl-glycin
iv
  Elimination aus dem Plasma: schnell aus dem Plasma eliminiert
  Spaltung durch Hydrolasen in den Geweben: gut gespalten
